We go through one molecule from patent US11707447B1.

A short description of the series: Mouse pharmacokinetic (PK) evaluation of drug metabolism to psilocin.

Molecules are shown by their SMILES.

Take `CN(C)CCc1c[nH]c2cccc(OC(=O)OCc3ccccc3)c12` [B(II), reference compound]: the “detection of administered compound in plasma (in words)” value (1 mg/kg oral) is reported as “neither B(II) nor E(VI) were detected in plasma”. For the same molecule, where the note is “oral dosing, sampling period 0.25-24 h”, the “psilocin levels / exposure, B(II) vs E(VI) (in words)” value is listed as “higher psilocin levels in B(II)-treated mice”.
